Molecular target: T1, human D3 receptor (Homo sapiens, UniProt P35462)
T1 construct: host or cells: Sf9 cells; final budded baculovirus production in Mimic Sf9 insect cells
Test: Fluorescence anisotropy competition binding with CELT-419 and D3 receptor budded baculoviruses
Settings: FA competition with 0.5 nM CELT-419

Chains of the proteins cited; added tags and fusions are not shown.
UniProt P35462, whole entry: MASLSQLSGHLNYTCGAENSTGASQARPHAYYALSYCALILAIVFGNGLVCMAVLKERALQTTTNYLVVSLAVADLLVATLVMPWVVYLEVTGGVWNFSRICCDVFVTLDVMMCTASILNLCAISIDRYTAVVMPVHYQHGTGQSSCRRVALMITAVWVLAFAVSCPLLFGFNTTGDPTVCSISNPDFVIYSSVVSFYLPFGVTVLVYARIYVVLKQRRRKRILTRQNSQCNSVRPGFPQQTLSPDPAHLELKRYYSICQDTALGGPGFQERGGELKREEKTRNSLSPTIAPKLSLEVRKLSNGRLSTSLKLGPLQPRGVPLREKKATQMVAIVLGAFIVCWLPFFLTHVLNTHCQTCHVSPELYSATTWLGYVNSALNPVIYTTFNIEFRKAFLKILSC

## Br.CCCN(CCC)C1CCc2ccc(O)cc2C1 (stereo not shown) [7-OH-DPAT, 7-hydroxy-DPAT hydrobromide]
  Log(IC50) values change in time: increased in time

From PMC10062709, “Fluorescence based HTS-compatible ligand binding assays for dopamine D3 receptors in baculovirus preparations and live cells” (Frontiers in Molecular Biosciences, 2023)
